Shown are actives, neighbours in structure and some others; about 2.1% of the full set was active somewhere.
Rev-erbA mod – modulates human Rev-erb alpha binding to DNA; activity, % at 10 µM; Rev-erbα–FITC-DNA binding, fluorescence polarization, 90 min; P20393; actives 0.79% (n = 370,000);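 active = activity above about 14%, limit read from the data; passing the limit was not always enough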
ERp5 block – ERp5 (human) disulfide isomerase inhibition. ERp5 insulin aggregation, absorbance 650 nm, 90 min. inhibition, % at 9.99 µM. actives 0.05% (n = 350,000). AID 651711;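 active = mean replicate inhibition above about 25%, with every replicate also reaching it, limit read from the data, passing the limit was not always enough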
SMARCA2 act – SMARCA2 function activation, primary screen; MG213 cells, MMTV-luciferase reporter, dexamethasone, overnight; activation, % at 9.1 µM; actives 1% (n = 370,000); in the data active = activation above about 7.8%
INS-1E GSIS act – primary screen for activators of insulin secretion dependent on glucose, INS-1E cells, GLuc reporter luminescence. actives 0.61% (n = 370,000). activation, % at 16.6 µM. INS-1E GLuc reporter insulin secretion, 2-3 h;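 active = lowest replicate activation of at least 40%, so every replicate reaches that level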
PDI turbidity – inhibitors of human protein disulfide isomerase; P07237; PDI insulin aggregation turbidity, A650, 90 min; inhibition, % at 10 µM; actives 0.052% (n = 350,000); AID 588391;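 active = mean inhibition across replicates of 30% or more, whatever share of single replicates reach that level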
UUG fidelity – alters start codon recognition fidelity in yeast. 350,000 tested, 0.13% active. activity score, % at 18.7 µM. S. cerevisiae UUG-firefly luciferase reporter, luminescence/redox ratio;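 active = replicate mean at a twofold rise or more, about +100% in these data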;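 also: firefly luciferase made from a UUG start codon reports start codon fidelity; reporter light over untreated wells divided by growth signal over untreated wells; some hits fall short of that in this replicate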
Of the large screens only hits and unclear results are named; the others gave an inactive call; ! = not confirmed by another sample.

COC(=O)N/N=C\c1c(C)nn(-c2ccccc2)c1Cl	none (no result: ERp5 block)
Cc1ccc(-c2nnn(CC(=O)N(CC(=O)NC3CCCCC3)c3cnc4ccccc4c3)n2)o1	none (no result: ERp5 block, INS-1E GSIS act)
CC(=O)c1cccc(N(CC(=O)NC2CCCCC2)C(=O)Cn2nnc(-c3ccccc3)n2)c1	INS-1E GSIS act 60.8
O=C(Nc1ccc(C(F)(F)F)cc1)N[C@H]1CC[C@H](CC(=O)N2CCCCC2)O[C@H]1CO	none (no result: Rev-erbA mod, SMARCA2 act, PDI turbidity)
O=C(N/N=C/c1ccc[nH]1)c1ccc([N+](=O)[O-])cc1	SMARCA2 act 7.9 (no result: INS-1E GSIS act)
COc1ccc(/C=C2/C(=O)OCc3cc(OC)c(OC)cc32)cc1	INS-1E GSIS act 112.6 (no result: ERp5 block, UUG fidelity)
COc1ccc(S(=O)(=O)N(C)C[C@H]2Oc3ccc(NC(=O)CCC(F)(F)F)cc3CC(=O)N([C@@H](C)CO)C[C@H]2C)cc1	none (no result: Rev-erbA mod, SMARCA2 act, PDI turbidity)
CC(C)C[C@@H](CNCC(=O)[C@H](Cc1c[nH]c2ccccc12)NC(=O)c1[nH]cnc1C(=O)N[C@@H](C)CN)NC(=O)c1nc[nH]c1C(=O)N[C@@H](Cc1ccccc1)C(=O)O	UUG fidelity 130.6
CC(C)C[C@@H](CNCC(=O)[C@H](C)NC(=O)c1[nH]cnc1C(=O)N[C@@H](C)CN)NC(=O)c1nc[nH]c1C(=O)N[C@@H](Cc1ccccc1)C(=O)O	none
CCCNC(=O)N1CCC2(CC1)CN(C(=O)CC1CC1)[C@@H](CO)c1[nH]c3cc(OC)ccc3c12	none (no result: Rev-erbA mod, SMARCA2 act, PDI turbidity, UUG fidelity)
O=C(CCCSc1ccccc1)Nc1nc(-c2ccco2)c(-c2ccco2)s1	none
O=C(CCl)Nc1nc(-c2ccco2)c(-c2ccco2)s1	PDI turbidity 62.2 (no result: UUG fidelity)
Cc1noc(C)c1NC(=O)N(C)C[C@H]1Oc2c(NC(=O)NC(C)C)cccc2C(=O)N([C@@H](C)CO)C[C@@H]1C	none (no result: Rev-erbA mod, SMARCA2 act, PDI turbidity)
O=C(c1ccco1)n1c(=S)nc2ccccn21	SMARCA2 act 7.9 (no result: ERp5 block, UUG fidelity)
CCS(=O)(=O)Nc1ccc2c(c1)C(=O)N(C)C[C@H](OC)[C@H](C)CN(C(=O)CN(C)C)[C@H](C)CO2	none (no result: Rev-erbA mod, SMARCA2 act, PDI turbidity)
CC(=O)Nc1cccc(C(C)C2=CCCCC2)c1 (stereo not drawn)	SMARCA2 act 7.8 (no result: ERp5 block, INS-1E GSIS act, PDI turbidity, UUG fidelity)
C[C@H](CO)N1C[C@H](C)[C@H](CN(C)Cc2ccc(C(F)(F)F)cc2)Oc2ccc(NS(=O)(=O)c3cn(C)cn3)cc2CC1=O	none (no result: Rev-erbA mod, SMARCA2 act, PDI turbidity)
O=C(Nc1ccccc1)NC1CCCc2ccccc21 (stereo not drawn)	none (no result: UUG fidelity)
Cc1cccc(C)c1NC(=O)NC1CCc2ccccc21 (stereo not drawn)	INS-1E GSIS act 119.3
CNC[C@@H]1Oc2ccc(NC(=O)CCN3CCOCC3)cc2C(=O)N([C@H](C)CO)C[C@@H]1C	none (no result: Rev-erbA mod, SMARCA2 act, PDI turbidity)
N#C/C(=C\c1c(N2CCCCCC2)nc2ccccn2c1=O)C(N)=O	INS-1E GSIS act 40.4
N#C/C(=C\c1c(N2CCN(c3ccccc3)CC2)nc2ccccn2c1=O)C(N)=O	none
CCOC(=O)N1CCN(S(=O)(=O)N2CCCC(C(=O)NCc3cc(OC)ccc3OC)C2)CC1 (stereo not drawn)	INS-1E GSIS act 99.4
Cc1ccc2c(c1)-c1nc3ccccc3cc1C2=NC1CCCCC1	SMARCA2 act 9.5 (no result: UUG fidelity)
CC(C)(C)c1cc(=O)n2[nH]c(N)nc2n1	none (no result: UUG fidelity)
COC(C)(C)c1cc(C(C)(C)C)nc(N)n1	INS-1E GSIS act 48.1 (no result: ERp5 block)
COc1cc(NC(=O)CN2C(=O)C(=O)N(C3CCCC3)C2=O)cc(OC)c1	none
COc1cc(NC(=O)CN2C(=O)C(=O)N(CC(C)C)C2=O)cc(OC)c1	INS-1E GSIS act 43.1
Cc1nnc(SCC(=O)Nc2cc(Cl)ccc2Cl)n1CC1CCCO1 (stereo not drawn)	INS-1E GSIS act 73.5
COc1ccc(CCNS(=O)(=O)c2cn(C)cn2)cc1OC	INS-1E GSIS act 43.7
CCn1cc(S(=O)(=O)NCCc2ccc(OC)c(OC)c2)cn1	INS-1E GSIS act 48.3
COc1ccc(CCNS(=O)(=O)c2cn(C)nc2C)cc1OC	none
CCN(Cc1cc(OC)c(OC)c(OC)c1)S(=O)(=O)c1ccccc1Br	none (no result: PDI turbidity, UUG fidelity)
CCN(Cc1ccccc1)S(=O)(=O)c1ccccc1Br	INS-1E GSIS act 41.4
CN(Cc1ccccc1)c1nc2c(c(=O)[nH]c(=O)n2C)n1Cc1ccccc1F	none
CCCCCn1c(N(C)Cc2ccccc2)nc2c1c(=O)[nH]c(=O)n2C	INS-1E GSIS act 40.4
CN(Cc1ccccc1)c1nc2c(c(=O)[nH]c(=O)n2C)n1Cc1ccccc1	INS-1E GSIS act 69.8
CCCNC(=O)[C@H]1[C@H](CO)[C@H]2Cn3c(ccc(-c4ccc(OC)cc4)c3=O)[C@H]2N1CC	none (no result: Rev-erbA mod, SMARCA2 act, PDI turbidity, UUG fidelity)
CO[C@@H]1CN(C)C(=O)c2ccc(NC(=O)c3cc(C)on3)cc2OC[C@@H](C)N(CC2CC2)C[C@H]1C	none (no result: Rev-erbA mod, ERp5 block, SMARCA2 act, PDI turbidity, UUG fidelity)
COc1ccc(S(=O)(=O)N(C)C[C@@H]2Oc3ccc(NS(=O)(=O)c4ccc(F)cc4)cc3C(=O)N([C@H](C)CO)C[C@H]2C)cc1	none (no result: Rev-erbA mod, SMARCA2 act, PDI turbidity)
COc1nc(Nc2ccccc2)nc(OC)n1	INS-1E GSIS act 41.3
COc1nc(Nc2cccc(F)c2)nc(OC)n1	none (no result: INS-1E GSIS act)
Cc1ccsc1C(=O)NNC(=O)C1C2C=CC(C2)C1C(=O)O (stereo not drawn)	SMARCA2 act 9.0
C[C@@H]1CN([C@H](C)CO)C(=O)CCCn2nncc2CO[C@H]1CN(C)CC1CCCCC1	none (no result: Rev-erbA mod, SMARCA2 act, PDI turbidity)
CCOc1cccc2cc(C(=O)Nc3cc(C)on3)c(=O)oc12	INS-1E GSIS act 45.1 (no result: ERp5 block)
CCOc1cccc2cc(C(=O)Nc3ccccc3-c3ccccc3)c(=O)oc12	none (no result: ERp5 block, INS-1E GSIS act)
O=C(C[C@@H]1CC[C@H]2[C@@H](COC[C@H](O)CN2Cc2nccs2)O1)NCc1ccc(-c2ccccc2)cc1	none (no result: Rev-erbA mod, SMARCA2 act, PDI turbidity)
CCCN1C[C@@H](C)[C@@H](OC)CN(C)C(=O)c2ccc(NC(=O)c3cccc(F)c3)cc2OC[C@H]1C	INS-1E GSIS act 47.2! (no result: PDI turbidity)
CCCN1C[C@H](C)[C@H](OC)CN(C)C(=O)c2ccc(NC(=O)c3cccc(F)c3)cc2OC[C@@H]1C	none (no result: Rev-erbA mod, SMARCA2 act, PDI turbidity)
CCC(=O)Nc1ccc2c(c1)OC[C@H](C)N(Cc1cccnc1)C[C@H](C)[C@H](OC)CN(C)C2=O	ERp5 block 28.6 (no result: Rev-erbA mod, SMARCA2 act, PDI turbidity)
CCC(=O)Nc1ccc2c(c1)OC[C@H](C)N(Cc1cccnc1)C[C@@H](C)[C@H](OC)CN(C)C2=O	none (no result: Rev-erbA mod, SMARCA2 act, PDI turbidity)
Cc1noc(C)c1NC(=O)N[C@H]1CC[C@H](CCNC(=O)C2CC2)O[C@H]1CO	none (no result: Rev-erbA mod, SMARCA2 act, PDI turbidity)
C[C@H](CO)N1C[C@H](C)[C@@H](CN(C)C(=O)Nc2ccc(F)cc2)OCCCC[C@H](C)Oc2ccc(NS(=O)(=O)c3cccs3)cc2C1=O	none (no result: Rev-erbA mod, SMARCA2 act, PDI turbidity)
CC(C)C(=O)Nc1ccc2c(c1)C(=O)N(C)[C@@H]1CC[C@H](CC(=O)NCc3cccc(F)c3)O[C@@H]1CO2	none (no result: Rev-erbA mod, ERp5 block, SMARCA2 act, PDI turbidity)
CC(=O)Nc1nc2nc(-c3ccccc3)cc(-c3ccccc3)n2n1	none (no result: Rev-erbA mod, ERp5 block, INS-1E GSIS act)
O=C1CCC(=O)N1c1nc2nc(-c3ccccc3)cc(-c3ccccc3)n2n1	PDI turbidity 33.3 (no result: ERp5 block, INS-1E GSIS act)
COc1ccc(/C=N/Nc2nncc3ccccc23)cc1	SMARCA2 act 8.5
COc1ccccc1/C=N/Nc1nncc2ccccc12	none (no result: UUG fidelity)

Compound activity (PubChem)
